PubChem BioAssay AID636 (SRMLSC, 2007)
The entries are a selection whose mix differs from that of the whole data set. Calls of active or inactive are those of the source. Rule as the data show it: active = inhibition above about 31%; inactive = the rest.

Assay: yeast transport mutant growth inhibition pilot in 384-well plates, post-Golgi transport modulator project (AID 636)
Settings: absorbance 615 nm, about 18 h, stronger effect = higher value
In the case of Cc1ccc(C)c(NP(C)(=O)Oc2ccccc2)c1 (stereo not given), the inhibition was inactive: -0.91%.
In the case of CP(=S)(Nn1cnnc1)Oc1ccccc1 (stereo not given), the inhibition was inactive: -4.68%.
In the case of CP(=O)(Nc1ccccn1)Oc1ccccc1 (stereo not given), the inhibition was inactive: -1.3%.
In the case of CN(C)CCOC(=O)C(O)(c1ccccc1)C1CCCCC1 (stereo not given), the inhibition was inactive: -1.84%.
For CP(=O)(Nc1ccc2c(c1)OCCO2)Oc1ccccc1 (stereo not given), the inhibition was inactive: -2.95%.
